Laboratory results taken from publication PMC7587356, “High-Throughput Screening for Inhibitors of the SARS-CoV-2 Protease Using a FRET-Biosensor” (Molecules, 2020).
Where a name gives a salt, the structure may show the parent alone. Read-outs that look alike come from different tables or passages of the source.

How the values were obtained:
SARS-CoV-2 3CLpro [1] = biological target: T1, SARS-CoV-2 3CLpro (Severe acute respiratory syndrome coronavirus 2, UniProt P0DTD1); assay: biochemical; details: 4 h
SARS-CoV-2 3CLpro [2] = biological target: T1, SARS-CoV-2 3CLpro; details: for Replicate_2 (LOPAC_screen_w_protease): replicate 2
[3] = LOPAC1280 primary screen with protease, 5 µM compound
[4] = read-out: Replicate_1 (LOPAC_screen_w_protease)
[5] = read-out: Replicate_2 (LOPAC_screen_w_protease)
[6] = read-out: Replicate_1 (LOPAC screen with protease)
[7] = read-out: Replicate_2 (LOPAC screen with protease)
[8] = read-out: mean (LOPAC screen with protease)

Structure (SMILES) | inhibition at 5 µM (SARS-CoV-2 3CLpro [1]; read-out: Replicate_1) | inhibition at 5 µM (SARS-CoV-2 3CLpro [1]; read-out: Replicate_2) | inhibition at 5 µM (SARS-CoV-2 3CLpro [1]; read-out: mean) | other results
C[C@]12C[C@H](O)[C@H]3[C@@H](CCC4=CC(=O)CC[C@@]43C)[C@@H]1CC[C@@H]2C(=O)CO [Corticosterone] | 0.575% | 0.162% | 0.369% | 
OCc1cc(C(O)CNCCCCCCOCCCCc2ccccc2)ccc1O (stereo not drawn) [Salmeterol xinafoate] | 2.01% | 2.68% | 2.35% | 
CCc1cccc(N(C)C(N)=Nc2cccc3ccccc23)c1 [CNS-1102] | 1.29% | -0.535% | 0.379% | 
Oc1ncnc2[nH]ncc12 [Allopurinol] | 1.76% | 2.63% | 2.19% | 
Cc1cn[nH]c1.Cl [4-Methylpyrazole hydrochloride] |  |  |  | Replicate_1 (SARS-CoV-2 3CLpro [2]; sheet LOPAC_screen_w_protease, LOPAC1280 primary screen with protease, 5 µM compound, replicate 1): 2.521
CC12CC3CC(C)(C1)CC(N)(C3)C2 [Memantine hydrochloride] | 4.92% | 1.8% | 3.36% | 
CN(Cc1cnc2nc(N)nc(N)c2n1)c1ccc(C(=O)N[C@@H](CCC(=O)O)C(=O)O)cc1 [Methotrexate] | 0.384% | 0.0465% | 0.215% | 
COc1ccc2c(c1OC)C(=O)O[C@@H]2[C@H]1c2c(cc3c(c2OC)OCO3)CCN1C.Cl [Noscapine hydrchloride] |  |  |  | Replicate_2 (LOPAC_screen_w_protease) (SARS-CoV-2 3CLpro [2]; [3]): 2.517
CC[C@]1(O)C[C@H]2CN(CCc3c([nH]c4ccccc34)[C@@](C(=O)OC)(c3cc4c(cc3OC)N(C=O)[C@H]3[C@@](O)(C(=O)OC)[C@H](OC(C)=O)[C@]5(CC)C=CCN6CC[C@]43[C@@H]65)C2)C1 [Vincristine sulfate] | -1.48% | 1.23% | -0.124% | 
O=C1CN(/N=C/c2ccc(-c3ccc([N+](=O)[O-])cc3)o2)C(O)=N1 [Dantrolene sodium] | 5.37% | 2.64% | 4.01% | 
COc1cc2c(cc1O)CC[C@@H]1[C@@H]2CC[C@]2(C)[C@@H](O)CC[C@@H]12 [2-methoxyestradiol] | 1.84% | 3.11% | 2.47% | 
CC(C)(C)[C@]1(O)CCN2C[C@H]3c4ccccc4CCc4cccc(c43)[C@@H]2C1 [(+)-Butaclamol hydrochloride] | 2.49% | -1.87% | 0.31% | 
COc1cc2nc(N3CCN(C(=O)C4CCCO4)CC3)nc(N)c2cc1OC (stereo not drawn) [Terazosin hydrochloride] | 2.48% | 2.75% | 2.62% | 
C#CCN(C)Cc1ccccc1 [Pargyline hydrochloride] | 0.662% | -1.07% | -0.205% | 
O=C(CCCN1CC=C(n2c(=O)[nH]c3ccccc32)CC1)c1ccc(F)cc1 [Droperidol] |  |  |  | inhibition at 5 µM (SARS-CoV-2 3CLpro [1]; [4]): 2.54%; inhibition at 5 µM (SARS-CoV-2 3CLpro [1]; [5]): 1.39%; mean (LOPAC_screen_w_protease) (SARS-CoV-2 3CLpro [2]): 1.965
NCCCNCCSP(=O)(O)O [Amifostine] |  |  |  | inhibition at 5 µM (SARS-CoV-2 3CLpro [1]; [4]): 2.71%; inhibition at 5 µM (SARS-CoV-2 3CLpro [1]; [5]): 1.55%; mean (LOPAC_screen_w_protease) (SARS-CoV-2 3CLpro [2]): 2.129
[H]/N=C(/NC)NCCC[C@H](N)C(=O)O [NG-Monomethyl-L-arginine acetate] | 3.11% | 2.2% | 2.66% | 
COc1ccc2cc([C@H](C)C(=O)[O-])ccc2c1.[Na+] [(-)-Naproxen sodium] |  |  |  | Replicate_1 (SARS-CoV-2 3CLpro [2]): 2.524
CN1CCN2c3ccccc3Cc3ccccc3C2C1 (stereo not drawn) [Mianserin hydrochloride] |  |  |  | inhibition at 5 µM (SARS-CoV-2 3CLpro [1]; [6]): 11.1%; inhibition at 5 µM (SARS-CoV-2 3CLpro [1]; [7]): 9.35%; inhibition at 5 µM (SARS-CoV-2 3CLpro [1]; [8]): 10.2%
C[C@@]1(C2CCCC2)Cc2cc(OCC(=O)O)c(Cl)c(Cl)c2C1=O [R(+)-IAA-94] |  |  |  | Replicate_1 (SARS-CoV-2 3CLpro [2]; sheet LOPAC_screen_w_protease, primary screen with protease, compound at 5 µM, replicate 1): 2.519
CNC[C@H](O)c1cccc(O)c1 [Phenylephrine hydrochloride] |  |  |  | inhibition at 5 µM (SARS-CoV-2 3CLpro [1]; [4]): 1.35%; inhibition at 5 µM (SARS-CoV-2 3CLpro [1]; [5]): 2.33%; mean (LOPAC_screen_w_protease) (SARS-CoV-2 3CLpro [2]): 1.841
C[C@]12C=CC(=O)C=C1CC[C@H]1[C@@H]3C[C@@H](O)[C@](O)(C(=O)CO)[C@@]3(C)C[C@H](O)[C@@]12F [Triamcinolone] |  |  |  | inhibition at 5 µM (SARS-CoV-2 3CLpro [1]; [4]): 2.32%; inhibition at 5 µM (SARS-CoV-2 3CLpro [1]; [5]): 1.84%; mean (LOPAC_screen_w_protease) (SARS-CoV-2 3CLpro [2]): 2.083

Structure (SMILES) | inhibition at 5 µM (SARS-CoV-2 3CLpro [1]; read-out: Replicate_1) | inhibition at 5 µM (SARS-CoV-2 3CLpro [1]; read-out: Replicate_2) | inhibition at 5 µM (SARS-CoV-2 3CLpro [1]; read-out: mean) | other results
CC1=C(/C=C/C(C)=C/C=C/C(C)=C/C(=O)O)C(C)(C)CCC1 [Retinoic acid] |  |  |  | inhibition at 5 µM (SARS-CoV-2 3CLpro [1]; [4]): 2.57%; inhibition at 5 µM (SARS-CoV-2 3CLpro [1]; [5]): 1.52%; mean (LOPAC_screen_w_protease) (SARS-CoV-2 3CLpro [2]): 2.047
C#CCN(C)CCCOc1ccc(Cl)cc1Cl [Clorgyline hydrochloride] | 5.98% | 4.2% | 5.09% | 
CC1=C(/C=C/C(C)=C/C=C/C(C)=C\C(=O)O)C(C)(C)CCC1 [13-cis-retinoic acid] | 0.251% | 1.13% | 0.693% | 
NC(N)=Nc1nc(CSCCC(N)=NS(N)(=O)=O)cs1 [Famotidine] |  |  |  | inhibition at 5 µM (SARS-CoV-2 3CLpro [1]; [4]): 2.1%; inhibition at 5 µM (SARS-CoV-2 3CLpro [1]; [5]): 0.811%; mean (LOPAC_screen_w_protease) (SARS-CoV-2 3CLpro [2]): 1.453
Br.COc1ccc2c(c1)[C@]13CCCC[C@@H]1[C@H](C2)N(C)CC3.O |  |  |  | Replicate_2 (LOPAC_screen_w_protease) (SARS-CoV-2 3CLpro [2]; [3]): 2.52
O=c1[nH]cc(F)c(=O)[nH]1 [5-Fluorouracil] |  |  |  | inhibition at 5 µM (SARS-CoV-2 3CLpro [1]; [4]): 3.6%; inhibition at 5 µM (SARS-CoV-2 3CLpro [1]; [5]): -0.00964%; mean (LOPAC_screen_w_protease) (SARS-CoV-2 3CLpro [2]): 1.797
O=c1ccc2ccc(O)c(O)c2o1 [Daphnetin] | 4.21% | 7.22% | 5.72% | 
NS(=O)(=O)c1cc(C(=O)O)c(NCc2ccco2)cc1Cl [Furosemide] | 4.58% | 1.05% | 2.82% | 
CC1=C(CC(=O)O)c2cc(F)ccc2/C1=C\c1ccc([S+](C)[O-])cc1 (stereo not drawn) [Sulindac] | 1.65% | 3.88% | 2.76% | 
O=C(O)CCCc1ccc(N(CCCl)CCCl)cc1 [Chlorambucil] | 2.39% | 3.29% | 2.84% | 
CN1CCc2cccc3c2[C@H]1Cc1ccc(O)c(O)c1-3 [Apomorphine hydrochloride hemihydrate] |  |  |  | inhibition at 5 µM (SARS-CoV-2 3CLpro [1]; [6]): 99.5%; inhibition at 5 µM (SARS-CoV-2 3CLpro [1]; [7]): 101%; inhibition at 5 µM (SARS-CoV-2 3CLpro [1]; [8]): 100%
CC[C@@H](CO)NC(=O)[C@@H]1C=C2c3cccc4c3c(cn4C)C[C@H]2N(C)C1 [Methysergide maleate] | 2.96% | 3.5% | 3.23% | 
CC(=O)[C@]1(O)Cc2c(O)c3c(c(O)c2[C@@H](O[C@H]2C[C@H](N)[C@H](O)[C@H](C)O2)C1)C(=O)c1ccccc1C3=O [Idarubicin, reference compound] |  |  |  | inhibition at 5 µM (SARS-CoV-2 3CLpro [1]; [6]): 49.5%; inhibition at 5 µM (SARS-CoV-2 3CLpro [1]; [7]): 46.4%; inhibition at 5 µM (SARS-CoV-2 3CLpro [1]; [8]): 47.9%
CC(=O)S[C@@H]1CC2=CC(=O)CC[C@]2(C)[C@H]2CC[C@@]3(C)[C@@H](CC[C@@]34CCC(=O)O4)[C@H]12 [Spironolactone] | 0.656% | 1.74% | 1.2% | 
NCC(O)(CS(=O)(=O)O)c1ccc(Cl)cc1 (stereo not drawn) [2-Hydroxysaclofen] |  |  |  | Replicate_1 (SARS-CoV-2 3CLpro [2]; sheet LOPAC_screen_w_protease, LOPAC1280 primary screen at 5 µM, with protease, replicate 1): 2.518
CCCN(CCC)CCc1cccc2c1CC(=O)N2 [Ropinirole hydrochloride] | 2.32% | -2.17% | 0.0748% | 
COc1cc2c(c(OC)c1OC)-c1ccc(OC)c(=O)cc1[C@@H](NC(C)=O)CC2 [Colchicine] | 1.98% | -0.526% | 0.728% | 
CCC1(c2ccccc2)C(=O)NCNC1=O [Primidone] | -0.0045% | -1.59% | -0.8% | 
NC(CO)C(=O)NNCc1ccc(O)c(O)c1O (stereo not drawn) [Benserazide hydrochloride] |  |  |  | inhibition at 5 µM (SARS-CoV-2 3CLpro [1]; [6]): 73.3%; inhibition at 5 µM (SARS-CoV-2 3CLpro [1]; [7]): 70.5%; inhibition at 5 µM (SARS-CoV-2 3CLpro [1]; [8]): 71.9%
CNCC[C@@H](Oc1ccccc1C)c1ccccc1 [Tomoxetine] | 0.333% | 1.98% | 1.16% | 
OCCN(CCO)c1nc(N2CCCCC2)c2nc(N(CCO)CCO)nc(N3CCCCC3)c2n1 [dipyridamole, reference compound] | -17% | -19.1% | -18% | 
